This is a selection; strong and weak results do not stand in their true shares. Some structures show a salt or complex split into parts, the way the source records it. Active and inactive are the calls of the source. No rule for the calls is given here.

For this test, the target named is Eukaryotic translation initiation factor 4H (Homo sapiens) (UniProt Q15056). Briefly: eIF4H binding inhibition – biochemical, uHTS, fluorescence polarization, translation initiation inhibitor project, primary screen (AID 2012). To be noted: eIF4H fluorescence polarization binding assay; at 35 µM; stronger effect = higher value.
As for `CC(=O)NC(SC(=S)N(CC(C)C)CC(C)C)C(Cl)(Cl)Cl` (stereo not given), the inhibition was inactive: -3%. As for `Cc1ccc(OP(=O)(Nc2ccccn2)Oc2ccc(C)cc2)cc1`, the figure is inactive: -2.4%. Consider `COC(=O)c1cc2c(s1)N=C(c1ccccc1)N(C)P2(=O)N1CCOCC1` (stereo not given), for which the inhibition was inactive: -15.2%. The result for `CCN(CC)CCCOC(=O)C(O)(c1ccccc1)C1CCCCC1` (stereo not given) reads inactive: 1.1%; that for `CCC(=O)N1C2C3N(C(=O)CC)C1C1N(C(=O)CC)C(C(N1C(=O)CC)N3C(=O)CC)N2C(=O)CC`, inactive: 7%; that for `O=C(OC1CN2CCC1CC2)c1ccccc1` (stereo not given), inactive: 3.3%. The result for `CP(=O)(Nc1ccccc1)Oc1ccc(F)cc1` (stereo not given) reads inactive: -1.8%; that for `O=[N+]([O-])c1cc([N+](=O)[O-])c(OC2CCCCC2O)c([N+](=O)[O-])c1` (stereo not given), inactive: -1.3%; that for `CCCCCOc1ccc(NP(C)(=O)Oc2ccc(Cl)cc2Cl)cc1` (stereo not given), inactive: -8.3%. As for `O=c1c2cc([N+](=O)[O-])ccc2[nH]c2c([N+](=O)[O-])cc([N+](=O)[O-])cc12`, the figure is inactive: 2.6%; as for `CN(C)C(=O)Oc1noc2ccccc12`, inactive: -6.5%; as for `Cc1ccccc1OP(=O)(Nc1ccccn1)Oc1ccccc1C`, inactive: 6.3%.

On to `CCNC(=S)/N=C(\N)N[N+](=O)[O-]`, for which the inhibition is inactive: -2.8%. The result for `O=C(NC1CCS(=O)(=O)C1)NP(=S)(Oc1ccccc1)Oc1ccccc1` (stereo not given) reads inactive: 1.4%; that for `Cc1ccc(NP(=O)(Oc2cccc(C)c2)Oc2cccc(C)c2)nc1`, inactive: -12.1%; that for `CCOC(=O)NC(Sc1ccccc1)C(Cl)(Cl)Cl` (stereo not given), inactive: 3.8%. On to `c1ccc(-c2nn[nH]n2)c(-c2nn[nH]n2)c1`, for which the inhibition was inactive: 3.2%. The result for `CCOC(=O)c1ccc(NP(C)(=O)Oc2ccc(F)cc2)cc1` (stereo not given) reads inactive: 1.5%.

Consider `COc1ccc(OP(C)(=O)Nc2ccc(SC(F)(F)F)cc2)cc1` (stereo not given), for which the inhibition is inactive: -6.7%. As to `O=C(OC1CN2CCC1CC2)c1ccc([N+](=O)[O-])cc1` (stereo not given), the inhibition was inactive: 9.6%.

Turning to `CC(=O)c1ccc(N2CC2c2ccncc2)cc1` (stereo not given), the inhibition was inactive: -3.7%. For `C[C@H]1OP(=O)(Oc2ccccc2)C[C@@H]2O[C@@H]21` (stereo not given in full), the inhibition was inactive: -12.2%. The result for `C[C@@H]1C=CCP(=O)(Oc2ccccc2)O1` (stereo not given in full) reads inactive: -6.8%. On to `O=C(OCCN1CCN(CCOCc2ccccc2)CC1)C(O)(c1ccccc1)c1ccccc1`, for which the inhibition was inactive: 8.5%. In the case of `CC(=O)Nc1ccc(Oc2c([N+](=O)[O-])cc([N+](=O)[O-])cc2[N+](=O)[O-])cc1`, the inhibition was inactive: -13.2%. Take `CC(=O)Nc1ccc([As](=O)(O)O)c(O)c1`: the inhibition is inactive: 1.3%. The result for `COc1ccc2c(c1O)-c1c(O)c(OC)cc3c1[C@H](C2)[N+](C)(C)CC3.O=[N+]([O-])c1cc([N+](=O)[O-])c([O-])c([N+](=O)[O-])c1[O-]` reads inactive: 18%. As for `CCOc1ccc(C2=NCC(CBr)S2)cc1` (stereo not given), the figure is inactive: -21.3%. As for `O=P1(Nc2nc3ccc(Cl)cc3s2)COc2ccccc2O1` (stereo not given), the figure is inactive: -7%; as for `CP(=O)(Nc1ccccc1F)Oc1ccccc1` (stereo not given), inactive: 3%. For `CC(C)c1ccc(OP(C)(=O)Nc2ccc(SC(F)(F)F)cc2)cc1` (stereo not given), the inhibition was inactive: -10.6%.

With `CC(C)(C)C(=O)NC(Sc1ccccc1)C(Cl)(Cl)Cl` (stereo not given), the inhibition was inactive: 5.6%. As for `CP(=O)(Nc1ccc2c(c1)OCCO2)Oc1ccccc1` (stereo not given), the figure is inactive: 8.6%; as for `Cc1ccccc1NP(C)(=O)Nc1ccccc1C`, inactive: -8.3%.

Turning to `CP(=O)(Nc1ccc(SC(F)(F)F)cc1)Oc1ccc(F)cc1` (stereo not given), the inhibition is inactive: -0.3%.

For `CC(C)C(=O)NC(Sc1ccccc1)C(Cl)(Cl)Cl` (stereo not given), the inhibition is inactive: -11.7%. As for `O=P(Nc1nccs1)(c1ccccc1)c1ccccc1`, the figure is inactive: 4.1%; as for `CCOP(C)(=S)SCC(=O)NC(C)(CC)C(=O)O` (stereo not given), inactive: -6.7%; as for `c1nnnn1CCn1cnnn1`, inactive: -7.9%. For `O=[N+]([O-])c1ccc(O)c(/C=N/Nc2ccc([N+](=O)[O-])cc2[N+](=O)[O-])c1`, the inhibition was inactive: 54.2%.

Consider `O=[N+]([O-])c1ccc(OP2(=O)COCCO2)cc1` (stereo not given), for which the inhibition was inactive: 12.3%. As for `O=[N+]([O-])c1ncn(CCn2cnc([N+](=O)[O-])n2)n1`, the figure is inactive: -2.3%; as for `Cc1cc(-c2cccc3ccccc23)c(C)cn1.O=[N+]([O-])c1cc([N+](=O)[O-])c(O)c([N+](=O)[O-])c1`, inactive: -9.5%; as for `O=[N+]([O-])c1cc([N+](=O)[O-])c(NCC2CCS(=O)(=O)C2)c([N+](=O)[O-])c1` (stereo not given), inactive: 1.6%.

With `O=[As](O)(c1ccccc1)c1ccc(O)cc1`, the inhibition is inactive: -2.7%. As to `C(Cc1nn[nH]n1)Cc1nn[nH]n1`, the inhibition is inactive: 4.6%. The result for `Nc1ccc([As](=O)(O)c2ccc([N+](=O)[O-])cc2)cc1` reads inactive: 3.9%; that for `O=C(OC1CN2CCC1CC2)c1cccc(Cl)c1` (stereo not given), inactive: 4.1%.

Regarding `COc1ccc(OP(C)(=O)Nc2cccc(Br)c2)cc1` (stereo not given), the inhibition is inactive: -1.5%. The result for `O=P(Nc1ccccn1)(c1ccc(Br)cc1)c1ccc(Br)cc1` reads inactive: -0.9%.

In the case of `CN(C)C1(CNC(=O)c2ccc(Cl)c(S(N)(=O)=O)c2)CCCCC1`, the inhibition was inactive: -2.7%. The result for `C[C@H]1OP(=O)(Oc2ccccc2)[C@H](O)[C@H](O)[C@H]1N=[N+]=[N-]` (stereo not given in full) reads inactive: -2.4%. Take `CN(C)CCOC(=O)C(O)(c1ccccc1)C1CCCCC1` (stereo not given): the inhibition was inactive: 4.6%. The result for `O=P(Nc1nc2ccccc2s1)(c1ccccc1)c1ccccc1` reads inactive: -1.2%; that for `COc1ccc(NP(C)(=O)Oc2ccccc2OC)cc1` (stereo not given), inactive: 0.5%. The result for `CC(C)(C)C(=O)NC(Sc1ccncn1)C(Cl)(Cl)Cl` (stereo not given) reads inactive: -7.5%; that for `O=[N+]([O-])c1ncn(CCn2ncnc2[N+](=O)[O-])n1`, inactive: 4%; that for `O=[N+]([O-])c1cccc(NC2=NCC(CBr)S2)c1` (stereo not given), inactive: 2.9%.

As to `O=C(O)CNc1ccc([As](=O)(O)O)cc1`, the inhibition was inactive: 4.9%. The result for `O=C(Nc1cc([As](=O)(O)O)ccc1O)c1ccccc1` reads inactive: 4.4%. With `CCOC(=O)c1ccc(NP(C)(=O)Oc2ccc(Cl)cc2)cc1` (stereo not given), the inhibition is inactive: -17%. The result for `CP(=O)(OC12CC3CC(CC(C3)C1)C2)OC12CC3CC(CC(C3)C1)C2` reads inactive: -4.3%; that for `COc1ccccc1OP(C)(=O)Nc1ccccc1Br` (stereo not given), inactive: -4.4%; that for `CC(C)(C)c1ccc(OP(C)(=O)O)cc1`, inactive: -13.2%. `Nc1ccc([As](=O)(O)c2ccc(N)cc2)cc1`: the inhibition was inactive: 3.6%.

Regarding `CP(=O)(Nc1ccc(Cl)cc1)Oc1ccc(F)cc1` (stereo not given), the inhibition was inactive: -16.5%.

For the compound `CCN(/C(=N/P(=O)(N1CCOCC1)N1CCOCC1)N1CCOCC1)c1ccc(OC)cc1`, the inhibition was inactive: 3.9%.

As to `CN(C)C(=O)OCCc1n(C)cc[n+]1C`, the inhibition was inactive: 24.5%. The result for `CN(C)C(=O)c1c([N+](=O)[O-])cc([N+](=O)[O-])cc1[N+](=O)[O-]` reads inactive: 1.4%.

In the case of `CC(C)=N/N=C(\N)N[N+](=O)[O-]`, the inhibition was inactive: 6.3%. As for `CC1CCN(C(=O)Oc2c(Cl)cc(Cl)c3cccnc23)CC1`, the figure is inactive: -6.5%. As for `COc1ccc(C2=NCC(CBr)S2)cc1` (stereo not given), the figure is inactive: -7.1%; as for `COc1ccc(OP(C)(=O)Nc2ccc(Br)cc2)cc1` (stereo not given), inactive: -8.5%. The result for `CCN(CC)CC(O)COC(=O)C(O)(c1ccccc1)C1CCCCC1` (stereo not given) reads inactive: -4.8%. As for `O=C(OCCCN1CCCC1)C(O)(c1ccccc1)C1CCCCC1` (stereo not given), the inhibition is inactive: 9.1%.

Consider `O=[N+]([O-])c1cccc2n[nH]nc12`, for which the inhibition is inactive: -2.1%.

For `CC(=O)N1C2C3N(C(C)=O)C1C1N(C(C)=O)C(C(N1C(C)=O)N3C(C)=O)N2C(C)=O`, the inhibition is inactive: 34.7%. With `COc1ccccc1OP(C)(=O)Nc1c(C)n(C)n(-c2ccccc2)c1=O` (stereo not given), the inhibition is inactive: -7.2%. As for `CCc1ccc(OP(C)(=O)Nc2cccnc2)cc1` (stereo not given), the figure is inactive: 5.7%; as for `CCc1nc2c(n1)c1c(non1O)c1c2no[n+]1[O-]`, inactive: -2.4%. As for `O=[N+]([O-])c1cc([N+](=O)[O-])c(CCNc2ccccc2)c([N+](=O)[O-])c1`, the figure is inactive: 0.6%; as for `Cc1ccc(NP(=O)(Oc2ccccc2)Oc2ccccc2)nc1`, inactive: -3.9%. The result for `CP(=O)(Oc1ccccc1)N1CCOC1=O` (stereo not given) reads inactive: 2.5%; that for `Cc1c(NP(C)(=O)Oc2ccc(C(C)C)cc2)c(=O)n(-c2ccccc2)n1C` (stereo not given), inactive: 0.7%.

Turning to `Nc1cc(N)c2nonc2c1[N+](=O)[O-]`, the inhibition was inactive: 4.2%. The result for `CC(C)CC(=O)NC(Sc1ccc(Cl)cc1)C(Cl)(Cl)Cl` (stereo not given) reads inactive: -1.4%; that for `O=[N+]([O-])c1cc([N+](=O)[O-])c(Nc2ccccn2)c([N+](=O)[O-])c1`, inactive: -9.1%.

`O=C(NC(Sc1ccncn1)C(Cl)(Cl)Cl)c1ccccc1` (stereo not given): the inhibition is inactive: -7.7%. Regarding `Cc1c2non([O-])c-2c(C)[n+](=O)[n+]1[O-]`, the inhibition was inactive: 6.6%. The result for `Oc1ccccc1CNc1ccccn1` reads inactive: -2.6%; that for `COc1ccccc1OP(C)(=O)Nc1ccc(C)cc1C` (stereo not given), inactive: 1.5%; that for `CP(=O)(Nc1ccccn1)Oc1ccccc1` (stereo not given), inactive: -3.6%. As for `CCc1ccc(OP(C)(=O)O)cc1`, the inhibition was inactive: -5.5%. As for `NC(=O)c1cc([N+](=O)[O-])cc([N+](=O)[O-])c1N`, the figure is inactive: 7.9%; as for `Cc1ccc(N/C(=N/P(=O)(N2CCOCC2)N2CCOCC2)N2CCOCC2)cc1`, inactive: 3.6%.

For the compound `COc1ccccc1OP(C)(=O)Nc1ccc(Br)cc1` (stereo not given), the inhibition is inactive: -4.2%.

Regarding `Cc1ccc(OP(=O)(Nc2nccs2)Oc2ccc(C)cc2)cc1`, the inhibition was inactive: 1.1%. As for `COc1ccccc1OP(=O)(Nc1ccc(C)cn1)Oc1ccccc1OC`, the figure is inactive: -10.4%. As to `COc1ccc(OP(C)(=O)Nc2ccccn2)cc1` (stereo not given), the inhibition is inactive: -6.2%.

Consider `CN1CCCC(OC(=O)C(c2ccccc2)c2ccccc2)C1` (stereo not given), for which the inhibition is inactive: -3.5%.

(Values after PubChem BioAssay AID2012 (Sanford-Burnham Center for Chemical Genomics, 2009).)
